From patent US11999727B2 (Tango Therapeutics, Inc., priority 2020, dated 2024)

Chains of the proteins cited; added tags and fusions are not shown.
UniProt O14744, whole entry: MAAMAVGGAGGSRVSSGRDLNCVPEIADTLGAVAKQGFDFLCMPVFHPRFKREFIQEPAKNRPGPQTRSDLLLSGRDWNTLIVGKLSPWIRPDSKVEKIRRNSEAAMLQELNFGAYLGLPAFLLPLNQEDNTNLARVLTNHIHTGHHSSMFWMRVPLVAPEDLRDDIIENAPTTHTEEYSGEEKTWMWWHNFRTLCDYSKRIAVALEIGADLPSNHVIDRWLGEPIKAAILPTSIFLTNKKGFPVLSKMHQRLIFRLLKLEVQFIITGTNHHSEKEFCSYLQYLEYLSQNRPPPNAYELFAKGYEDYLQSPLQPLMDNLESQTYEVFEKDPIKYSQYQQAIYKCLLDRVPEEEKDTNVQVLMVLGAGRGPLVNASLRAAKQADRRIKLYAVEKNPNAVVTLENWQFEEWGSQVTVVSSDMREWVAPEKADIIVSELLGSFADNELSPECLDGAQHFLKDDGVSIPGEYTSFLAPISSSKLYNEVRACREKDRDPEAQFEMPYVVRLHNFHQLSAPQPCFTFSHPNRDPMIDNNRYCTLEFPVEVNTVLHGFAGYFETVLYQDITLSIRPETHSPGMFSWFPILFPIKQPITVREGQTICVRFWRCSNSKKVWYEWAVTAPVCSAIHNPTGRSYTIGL
UniProt Q9BQA1, whole entry partner: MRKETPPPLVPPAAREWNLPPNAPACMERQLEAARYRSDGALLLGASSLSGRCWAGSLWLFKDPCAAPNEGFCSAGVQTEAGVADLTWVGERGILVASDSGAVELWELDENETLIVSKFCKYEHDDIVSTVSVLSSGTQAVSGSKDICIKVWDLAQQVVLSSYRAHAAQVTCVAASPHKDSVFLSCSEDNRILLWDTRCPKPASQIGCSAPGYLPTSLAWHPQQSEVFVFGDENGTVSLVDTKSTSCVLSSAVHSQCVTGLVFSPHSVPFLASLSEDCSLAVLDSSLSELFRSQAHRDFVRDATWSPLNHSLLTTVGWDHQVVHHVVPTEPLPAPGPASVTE

How the values were obtained:
[1] = test system: HAP1 MTAP-deleted cell line; experiment: Viability assay, MTAP-deleted cell line; settings: read-out: HAP1 MTAP deleted viability
PRMT5 [2] = biological target: T1, PRMT5 (Homo sapiens, UniProt O14744); experiment: PRMT5 biochemical IC50 assay with no cofactor; settings: read-out: No Cofactor/rel IC50
PRMT5 [3] = biological target: T1, PRMT5; experiment: PRMT5 biochemical IC50 assay with MTA as cofactor; settings: read-out: MTA IC50
[4] = test system: HAP1 MTAP-intact cell line; experiment: SDMA in-cell western assay, HAP1 MTAP-intact; settings: read-out: MTAP HAP1 intact IC50
[5] = test system: HAP1 MTAP-deleted cell line; experiment: SDMA in-cell western assay, HAP1 MTAP-deleted; assay type: cell-based
PRMT5 [6] = biological target: T1, PRMT5; experiment: PRMT5 biochemical IC50 assay with SAM as cofactor; settings: read-out: SAM IC50

CCc1cc(NC(=O)C(=O)N2CC(C)C(F)(F)CC2c2ccc3[nH]ncc3c2)cnc1N (single isomer, unassigned) was tested, and the IC50 [1] was 1000 to 10000 nM, the IC50 (PRMT5 [2]) was over 500 nM and the IC50 (PRMT5 [3]) was over 500 nM. For the same molecule, the IC50 [4] was over 1000 nM, the MTAP intact/deleted ratio ([5]; IC50 ratio HAP1 MTAP-intact vs HAP1 MTAP-deleted) was “A (an IC50 ratio greater than or equal to 10 fold)” and the IC50 ([5]; read-out: HAP1 MTAP deleted IC50, HAP1 MTAP-deleted) was 100 to 1000 nM. For the same molecule, the IC50 (PRMT5 [6]) was over 500 nM.
